Biological target: D(1A) dopamine receptor (Homo sapiens, UniProt P21728)
Assay: Agonist activity at human D1 receptor assessed as cAMP accumulation
Type: functional

Amino acid sequences for entries named in this document (tags omitted).
UniProt P21728, whole entry: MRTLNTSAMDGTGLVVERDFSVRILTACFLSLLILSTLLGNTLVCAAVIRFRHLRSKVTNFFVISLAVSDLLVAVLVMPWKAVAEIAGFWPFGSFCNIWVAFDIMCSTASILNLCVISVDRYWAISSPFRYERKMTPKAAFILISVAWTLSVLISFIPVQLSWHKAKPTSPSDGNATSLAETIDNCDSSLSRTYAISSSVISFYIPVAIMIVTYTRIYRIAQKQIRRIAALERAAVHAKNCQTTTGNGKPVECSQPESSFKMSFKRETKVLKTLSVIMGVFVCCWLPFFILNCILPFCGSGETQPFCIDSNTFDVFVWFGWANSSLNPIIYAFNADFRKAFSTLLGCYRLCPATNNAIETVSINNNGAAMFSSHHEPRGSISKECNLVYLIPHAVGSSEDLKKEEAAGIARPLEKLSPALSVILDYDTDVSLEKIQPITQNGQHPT

EC50: 4.3 nM
SMILES: Oc1cc2c(cc1O)[C@H]1c3ccccc3CN[C@H]1CO2 [DOXANTHINE]

— ChEMBL document CHEMBL1221364 (Bioorg Med Chem, 2010)
